# Assay results: patent publication US20230128969A1, “POLYURETHANE FOAM COMPOSITIONS WITH ANTIMICROBIAL PROPERTIES” (SANITIZED AG, priority 2020, published 2023)
# Test system: Aspergillus niger-ATCC 9642, Penicillium funiculosum-ATCC 11797, Chaetomium globosum-ATCC 6205, Trichoderma virens-ATCC 9645, Aureobasidium pullulans-ATCC 15233
# Assay: ASTM G21 strengthened (fungal growth on specimen, 28 days)
# Assay type: cell-based, mold fungi (composite spore suspension)
# Conditions: memory foam A1; 0.3 pbw (B) with 0.5 pbw (C) dimethyltetradecyl(3-(trimethoxysilyl)propyl)ammonium chloride; (E) Diglyme 0.7 pbw
smiles,measurement,value
C1CN1,G21 (ASTM G21 strengthened rating),4 (at least 60% of the surface is covered with mold fungi)
